Consider one substance from patent US20210046188A1.

The chains behind the UniProt entries cited, without tags or fusion partners. Residues count along the entry.
UniProt P32301, 22-463: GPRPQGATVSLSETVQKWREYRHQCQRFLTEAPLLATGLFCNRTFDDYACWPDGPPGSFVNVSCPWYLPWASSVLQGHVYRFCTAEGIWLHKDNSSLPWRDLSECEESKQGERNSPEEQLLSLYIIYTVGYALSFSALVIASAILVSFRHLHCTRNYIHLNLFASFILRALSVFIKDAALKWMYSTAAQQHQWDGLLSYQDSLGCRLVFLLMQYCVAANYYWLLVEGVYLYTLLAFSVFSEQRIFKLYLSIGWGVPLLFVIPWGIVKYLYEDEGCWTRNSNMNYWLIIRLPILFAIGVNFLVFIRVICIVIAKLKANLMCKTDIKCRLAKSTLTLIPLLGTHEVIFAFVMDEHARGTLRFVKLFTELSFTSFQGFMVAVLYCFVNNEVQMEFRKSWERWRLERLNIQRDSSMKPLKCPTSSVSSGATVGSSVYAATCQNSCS

The test concerns the target rat GLP-1R (rat) (UniProt P32301). Description: cell-based or functional assay.

“66.2 kDa EG9 exendin-C-POEGMA conjugate (from UniProt P26349 48-86) (peptide)” yielded an EC50 (nM), cAMP response in BHK cells expressing GLP-1R of 2.1 nM.
